The subject of the assay is phosphodiesterase. The experiment in a line: Inhibition of phosphodiesterase isolated from rat brain tissue (radioisotopic technique, tritium-labelled c-AMP). It is filed as biochemical. Conditions: 20 minutes incubation, % of control. Here is the method:
Our model experiments were carried out by means of phosphodiesterase isolated from animal tissues. More particularly, the enzyme was isolated from the brain tissue of rats following the method of J. Schroder and H. V. Richenberg [Biochem. Biophys. Acta 302, 50 (1973)], whereupon the isolated phosphodiesterase was purified by the method of J. G. Hardman and E. W. Sutherland [J. Biol. Chem. 240, 3704 (1965)]. Finally, the activity of the purified enzyme was measured by the radioisotopic technique of G. Poch, in the presence of an excess amount of tritium-labelled c-AMP, in an incubator, initially without the inhibiting system and thereafter in the presence of a compound of the formula (I) as an inhibitor. The enzyme activity was determined after an incubation time of 20 minutes [N. S. Arch. Pharmacol. 268, 272 (1971)]. From the salts of the test compounds of the formula (I) aqueous 10^-3 molar stock solutions were prepared, their pH was adjusted to 4 to 5. To the incubated enzyme preparations suitable amounts of the stock solution were added in order to obtain a series of test solutions containing a compound of the formula (I) in a concentration of 10^-5, 5× 10^-5, 10^-4, 5×10^-4 and 10^-3 moles/lit. […] The degree of inhibition (decrease of enzyme activity) was expressed in % of the control (enzyme preparation containing no inhibitor).

Turning to `C[C@]12C=CC(=O)C=C1CC[C@@H]1[C@@H]2[C@@H](O)C[C@@]2(C)[C@H]1CC[C@]2(O)C(=O)COC(=O)CCC(=O)O` [Prednisolone-hemi-succinate, reference compound], under “1 × 10^-4 moles/lit.”, the “Inhibition (%) obtained by 1 × 10^-4 moles/lit. concentrations of the test compounds” value is 42.4%. Moreover, for the setting “1 × 10^-5 moles/lit.”, the “Inhibition (%) obtained by 1 × 10^-5 moles/lit. concentrations of the test compounds” value is on record as 9.2%. Also, the “Inhibition (%) obtained by 5 × 10^-5 moles/lit. concentrations of the test compounds” value (5 × 10^-5 moles/lit.) was 21.3%.
